Measured values taken from ChEMBL document CHEMBL5726968, “Mammalian and bacterial nitric oxide synthase inhibitors” (2018).

Chains of the proteins cited; added tags and fusions are not shown.
UniProt P35228, whole entry: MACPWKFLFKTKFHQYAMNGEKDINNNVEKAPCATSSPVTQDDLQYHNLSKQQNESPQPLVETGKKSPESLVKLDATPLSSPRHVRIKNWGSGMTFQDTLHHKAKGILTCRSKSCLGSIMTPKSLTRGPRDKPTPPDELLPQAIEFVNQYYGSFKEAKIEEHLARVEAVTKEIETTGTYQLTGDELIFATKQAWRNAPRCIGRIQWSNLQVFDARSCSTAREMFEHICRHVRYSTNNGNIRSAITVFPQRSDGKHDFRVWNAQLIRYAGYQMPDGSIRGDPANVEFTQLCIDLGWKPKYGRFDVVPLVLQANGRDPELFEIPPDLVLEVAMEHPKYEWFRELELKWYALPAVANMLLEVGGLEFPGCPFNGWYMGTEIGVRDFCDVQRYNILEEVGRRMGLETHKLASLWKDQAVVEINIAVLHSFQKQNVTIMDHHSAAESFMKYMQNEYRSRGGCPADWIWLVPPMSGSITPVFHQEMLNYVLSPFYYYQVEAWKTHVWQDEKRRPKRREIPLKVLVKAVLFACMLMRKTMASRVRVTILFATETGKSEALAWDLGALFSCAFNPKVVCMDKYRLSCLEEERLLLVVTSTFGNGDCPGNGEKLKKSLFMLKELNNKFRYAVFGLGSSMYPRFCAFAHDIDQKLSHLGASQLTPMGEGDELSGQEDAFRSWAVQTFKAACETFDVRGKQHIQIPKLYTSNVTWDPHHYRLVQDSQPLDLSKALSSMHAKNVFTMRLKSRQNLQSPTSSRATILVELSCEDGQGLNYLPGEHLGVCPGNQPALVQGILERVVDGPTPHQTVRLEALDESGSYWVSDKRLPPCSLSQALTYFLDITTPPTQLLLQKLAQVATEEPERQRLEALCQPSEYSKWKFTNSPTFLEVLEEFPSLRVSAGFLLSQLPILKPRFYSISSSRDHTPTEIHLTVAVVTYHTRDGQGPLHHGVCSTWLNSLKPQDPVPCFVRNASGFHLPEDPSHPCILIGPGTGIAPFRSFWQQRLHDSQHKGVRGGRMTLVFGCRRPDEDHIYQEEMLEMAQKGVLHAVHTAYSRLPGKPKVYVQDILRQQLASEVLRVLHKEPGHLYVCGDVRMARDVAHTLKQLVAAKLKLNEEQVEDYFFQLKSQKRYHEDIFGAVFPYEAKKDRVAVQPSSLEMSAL

Biological target: Nitric oxide synthase, inducible (Homo sapiens, UniProt P35228)
Assay: Inhibition Assay: The NOSs isoform assays involved subjecting 3-8 to an oxyhemoglobin NO capture assay using a Biotek Gen5™ microplate reader.

## Cc1cc(N)nc(CCc2cncc(CCc3cc(C)cc(N)n3)c2)c1
  Ki: 1450 nM
